Consider 1 compound from BindingDB's records for PubMed 11082457 (Centre De Recherches De Croissy, 2000).

Chains of the proteins cited; added tags and fusions are not shown.
UniProt P15823, whole entry: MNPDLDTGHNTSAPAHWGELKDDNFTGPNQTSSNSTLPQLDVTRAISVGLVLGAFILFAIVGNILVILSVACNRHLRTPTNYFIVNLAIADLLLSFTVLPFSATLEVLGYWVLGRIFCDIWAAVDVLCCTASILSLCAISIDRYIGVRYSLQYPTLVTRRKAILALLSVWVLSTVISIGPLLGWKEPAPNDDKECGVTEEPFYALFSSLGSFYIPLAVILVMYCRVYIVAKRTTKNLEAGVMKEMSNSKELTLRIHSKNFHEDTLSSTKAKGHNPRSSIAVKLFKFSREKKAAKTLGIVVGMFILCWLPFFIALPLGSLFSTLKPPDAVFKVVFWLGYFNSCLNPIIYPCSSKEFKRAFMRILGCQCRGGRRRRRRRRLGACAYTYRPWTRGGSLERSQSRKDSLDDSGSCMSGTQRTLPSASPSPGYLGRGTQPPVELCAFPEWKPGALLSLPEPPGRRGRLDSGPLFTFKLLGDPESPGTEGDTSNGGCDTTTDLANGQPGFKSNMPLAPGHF

For assay [1], the target named is Alpha-1B adrenergic receptor (Rattus norvegicus, UniProt P15823).
The target of assay [2] is T1, Alpha-1A adrenergic receptor (Rattus norvegicus, UniProt P43140).
T1 sequence (P43140 whole entry): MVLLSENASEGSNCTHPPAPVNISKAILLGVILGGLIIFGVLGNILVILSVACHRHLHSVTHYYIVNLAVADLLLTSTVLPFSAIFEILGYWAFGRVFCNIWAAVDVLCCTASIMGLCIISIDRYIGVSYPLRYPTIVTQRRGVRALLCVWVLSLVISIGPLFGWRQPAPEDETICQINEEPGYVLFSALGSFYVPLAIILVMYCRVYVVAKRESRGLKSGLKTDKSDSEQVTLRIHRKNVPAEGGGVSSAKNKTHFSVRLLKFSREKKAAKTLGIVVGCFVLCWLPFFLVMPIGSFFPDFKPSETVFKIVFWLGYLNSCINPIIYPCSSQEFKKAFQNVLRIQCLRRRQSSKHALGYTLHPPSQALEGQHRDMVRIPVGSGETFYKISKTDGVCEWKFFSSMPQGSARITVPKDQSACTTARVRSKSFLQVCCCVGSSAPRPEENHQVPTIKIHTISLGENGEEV

Regarding `Clc1cccc(Cl)c1N=C1NCCN1` [2-(2,6-dichloroanilino)-2-imidazoline], the figures for the inhibitory constant (Ki) in assay [1] and in assay [2] were 316 nM and 100 nM, respectively.
